Source: paper PMC5389348 (Scientific Reports, 2017)

By UniProt entry, the sequences of proteins in these tests, tags left out. Residues count along the entry.
UniProt Q08499, 1-584 isoform Q08499-4: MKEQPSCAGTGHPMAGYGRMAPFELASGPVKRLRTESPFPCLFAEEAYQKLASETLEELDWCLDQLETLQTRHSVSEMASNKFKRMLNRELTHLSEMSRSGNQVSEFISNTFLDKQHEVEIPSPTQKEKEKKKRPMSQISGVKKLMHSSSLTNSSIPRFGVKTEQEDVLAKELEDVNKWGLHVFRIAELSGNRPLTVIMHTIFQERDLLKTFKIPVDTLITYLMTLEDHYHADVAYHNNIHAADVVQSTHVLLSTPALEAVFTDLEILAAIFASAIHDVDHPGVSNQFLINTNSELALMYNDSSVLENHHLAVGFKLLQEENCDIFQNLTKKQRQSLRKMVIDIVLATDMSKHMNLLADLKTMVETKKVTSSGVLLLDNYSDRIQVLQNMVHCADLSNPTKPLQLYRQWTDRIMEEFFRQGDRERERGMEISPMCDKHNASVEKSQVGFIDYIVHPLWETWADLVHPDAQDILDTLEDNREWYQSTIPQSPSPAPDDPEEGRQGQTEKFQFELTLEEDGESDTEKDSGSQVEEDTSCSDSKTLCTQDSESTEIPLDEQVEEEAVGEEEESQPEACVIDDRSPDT
UniProt Q08499, 303-809: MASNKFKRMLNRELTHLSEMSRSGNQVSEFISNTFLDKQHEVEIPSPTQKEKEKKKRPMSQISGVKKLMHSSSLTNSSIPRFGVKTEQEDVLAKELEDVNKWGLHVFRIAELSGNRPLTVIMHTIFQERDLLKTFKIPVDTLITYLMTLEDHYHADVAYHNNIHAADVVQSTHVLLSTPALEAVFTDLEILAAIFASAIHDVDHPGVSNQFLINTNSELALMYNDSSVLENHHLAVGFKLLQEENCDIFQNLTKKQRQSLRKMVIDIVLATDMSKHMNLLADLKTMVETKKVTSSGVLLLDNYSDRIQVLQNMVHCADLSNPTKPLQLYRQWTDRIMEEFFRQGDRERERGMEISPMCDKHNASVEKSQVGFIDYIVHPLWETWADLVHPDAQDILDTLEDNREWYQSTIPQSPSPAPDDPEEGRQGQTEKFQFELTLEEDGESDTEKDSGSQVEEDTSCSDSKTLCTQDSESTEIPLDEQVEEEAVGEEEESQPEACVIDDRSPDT
UniProt Q08499, 1-745 isoform Q08499-6: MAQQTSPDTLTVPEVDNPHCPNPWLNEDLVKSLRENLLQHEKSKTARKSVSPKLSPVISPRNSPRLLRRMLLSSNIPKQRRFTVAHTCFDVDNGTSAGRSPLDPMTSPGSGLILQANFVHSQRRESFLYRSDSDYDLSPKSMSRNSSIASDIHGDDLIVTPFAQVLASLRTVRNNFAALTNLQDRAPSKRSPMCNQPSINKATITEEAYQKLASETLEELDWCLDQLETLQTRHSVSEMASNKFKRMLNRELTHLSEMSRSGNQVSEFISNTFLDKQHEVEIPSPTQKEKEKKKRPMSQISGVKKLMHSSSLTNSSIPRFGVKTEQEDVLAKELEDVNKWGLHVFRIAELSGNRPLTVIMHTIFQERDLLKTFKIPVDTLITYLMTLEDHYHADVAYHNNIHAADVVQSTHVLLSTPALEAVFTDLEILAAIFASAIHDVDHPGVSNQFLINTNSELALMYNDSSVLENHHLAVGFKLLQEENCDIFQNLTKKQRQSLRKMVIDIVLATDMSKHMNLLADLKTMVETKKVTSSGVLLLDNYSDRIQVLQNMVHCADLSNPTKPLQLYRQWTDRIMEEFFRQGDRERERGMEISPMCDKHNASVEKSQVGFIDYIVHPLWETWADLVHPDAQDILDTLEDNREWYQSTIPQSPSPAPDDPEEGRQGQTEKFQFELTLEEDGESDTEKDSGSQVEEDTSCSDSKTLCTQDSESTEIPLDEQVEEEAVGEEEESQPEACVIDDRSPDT
UniProt Q08499, 1-748 isoform Q08499-11: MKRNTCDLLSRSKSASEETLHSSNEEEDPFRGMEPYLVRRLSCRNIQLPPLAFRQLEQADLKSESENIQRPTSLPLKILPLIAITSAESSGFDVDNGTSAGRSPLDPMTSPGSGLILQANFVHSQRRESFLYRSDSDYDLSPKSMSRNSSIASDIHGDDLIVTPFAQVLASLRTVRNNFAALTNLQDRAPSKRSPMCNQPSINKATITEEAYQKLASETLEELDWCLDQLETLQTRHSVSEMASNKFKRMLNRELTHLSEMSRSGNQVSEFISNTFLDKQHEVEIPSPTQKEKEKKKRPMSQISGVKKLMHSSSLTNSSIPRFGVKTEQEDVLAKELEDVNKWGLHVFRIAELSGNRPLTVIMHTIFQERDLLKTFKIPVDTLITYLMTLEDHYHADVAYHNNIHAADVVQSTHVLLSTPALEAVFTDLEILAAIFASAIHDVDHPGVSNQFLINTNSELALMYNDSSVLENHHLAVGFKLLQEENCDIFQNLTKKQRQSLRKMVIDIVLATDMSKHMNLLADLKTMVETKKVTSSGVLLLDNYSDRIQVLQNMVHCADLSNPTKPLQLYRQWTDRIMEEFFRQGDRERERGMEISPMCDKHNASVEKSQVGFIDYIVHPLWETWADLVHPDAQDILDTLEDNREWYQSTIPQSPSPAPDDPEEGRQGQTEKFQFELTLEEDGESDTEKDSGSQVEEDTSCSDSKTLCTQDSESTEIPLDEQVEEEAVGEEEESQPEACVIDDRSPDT

Assays:
Experiment in all cases: biochemical
Conditions in all cases: read-out: GEBR-32a % inhibition
PDE4D1 = PDE4D1 (Homo sapiens, UniProt Q08499)
PDE4D2 = PDE4D2 (Homo sapiens, UniProt Q08499)
PDE4D5 = PDE4D5 (Homo sapiens, UniProt Q08499)
PDE4D7 = PDE4D7 (Homo sapiens, UniProt Q08499)

OC(CN1CCOCC1)Cn1ccc(-c2ccc(OC(F)F)c(OC3CCCC3)c2)n1 (stereo not shown) [GEBR-32a]
inhibition at 10 µM (PDE4D1): 82.2%
inhibition at 10 µM (PDE4D2): 87.8%
inhibition at 10 µM (PDE4D5): 67.3%
inhibition at 10 µM (PDE4D7): 90.7%
